# AlphaSeq binding of Ab-14 light chain variants to a spike HR2 peptide

Source: Li et al. 2023 (doi:10.1038/s41467-023-39022-2), MIT Lincoln Laboratory and A-Alpha Bio; data file from the FLAb repository.

Target: peptide PDVDLGDISGINAS, taken from heptad repeat 2 (HR2) of SARS-CoV-2 spike.

Ab-14 is the parent antibody, in scFv form: VH, then a (GGGGS)3 linker, then VL. The heavy chain is unchanged in all variants.
VH: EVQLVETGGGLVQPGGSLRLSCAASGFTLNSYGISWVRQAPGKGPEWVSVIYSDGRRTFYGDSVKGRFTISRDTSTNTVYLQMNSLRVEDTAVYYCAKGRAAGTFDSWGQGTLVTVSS
VL: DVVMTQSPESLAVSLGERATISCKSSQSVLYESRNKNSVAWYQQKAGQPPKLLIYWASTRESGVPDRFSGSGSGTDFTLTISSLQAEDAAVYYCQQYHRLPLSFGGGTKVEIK

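The parent was found by panning a naive human phage display library on the peptide. Designed CDR sequences, proposed from the first random library and measured here. Group labels follow the data file (Ctrl: baseline library sampled from a position-specific scoring matrix, with some repeated check sequences; En: ensemble of fine-tuned language models; GP: Gaussian process model; HC: hill climbing; Gen: genetic algorithm; Gibbs: Gibbs sampling; a sequence that several methods proposed may carry one label only). In AlphaSeq, yeast of one mating type display the scFv and yeast of the other type display the target. Binding brings cells together so that they mate, and sequencing counts the barcode pairs among the diploids. Read counts were normalised to the haploid input and turned into Kd by a linear fit to BCL2-family pairs of known affinity, for each replicate. There are six technical replicates.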

Variants are written as CDR1, CDR2 and CDR3 of the light chain (limits as in the source). Parent: KSSQSVLYESRNKNSVA, WASTRES, QQYHRLPLS.
Affinities are written as log10 Kd with Kd in nM; a lower number is a better binder.
Replicates are averaged; those with no signal do not enter the mean.
Where no diploid with the target was found in that replicate, the entry reads "nd": below detection, most likely a poor binder, though not proof of it.
Order: sorted from the lowest average up, undetected variants last.
In the paper, a design with two or fewer of six values counts as a poor binder.

| CDR-L1 | CDR-L2 | CDR-L3 | group | log10 Kd (nM) by replicate | mean log10 Kd (nM) |
|---|---|---|---|---|---|
| KLSQSGGYEQRNKNSVA | EASTRED | QQYHRLPLS | GP_Gibbs | -0.37 -0.56 -0.33 -0.53 -0.59 -0.35 | -0.45 |
| KVSGQGLYGDRNANSVA | NASTRED | QQYHRLPLS | GP_Gibbs | -0.30 -0.38 -0.31 -0.55 -0.31 -0.25 | -0.35 |
| KLSQSVDYESRNKNSVA | NASTRES | QQYHRLPLS | GP_Gen | -0.05 -0.19 -0.24 -0.47 -0.39 -0.08 | -0.24 |
| KVQQSYLYESRNKNSVA | NASTRES | QQYHRLPLS | GP_Gen | -0.06 -0.24 -0.11 -0.37 -0.11 -0.12 | -0.17 |
| KLQGSQLYESRNKNSVA | NASTRES | QQYHRLPLS | GP_Gen | 0.13 -0.07 -0.06 -0.15 -0.18 -0.01 | -0.06 |
| KQEISVLQESRNQNSVA | NASTREV | QQYHRLPLS | GP_Gibbs | 0.00 -0.10 -0.10 -0.14 0.07 0.27 | 0.00 |
| KLWMSTLYESRNKNSVA | NASTRES | QQYHRLPLS | GP_HC | -0.21 -0.08 0.13 0.07 -0.10 0.32 | 0.02 |
| KLEQSVLYESRNKNAVA | NASQRES | QQYHRLPLS | GP_Gen | 0.36 0.04 0.05 -0.21 -0.06 0.07 | 0.04 |
| KVMQSVLYEDRNVNNVA | NGSTRES | QQYHRLPLS | GP_Gibbs | 0.20 0.19 -0.18 -0.01 0.07 0.03 | 0.05 |
| FFSQSVLYESRTKNSVA | NASTRES | QQYHRLPLS | GP_HC | 0.55 -0.18 0.30 0.01 -0.04 -0.17 | 0.08 |
| KSSIGYLEESRNKNSVA | EASTRES | QQYHRLPLS | GP_HC | 0.24 0.17 0.13 -0.01 0.06 0.14 | 0.12 |
| KVDMSQLYESRNKNSVA | NASLRCS | QQYHRLPLS | GP_Gibbs | 0.29 0.04 0.17 0.02 0.04 0.24 | 0.13 |
| KSSISSDYEDRNDNSVA | NASQREH | QQYHRLPLS | GP_Gibbs | 0.25 0.05 0.22 -0.03 0.13 0.21 | 0.14 |
| KVPGEQGYESRNKNSVA | EASTRES | QQYHRLPLS | GP_Gibbs | 0.12 0.10 -0.05 0.21 0.19 0.47 | 0.17 |
| KLVQSNLYESRNTNSVA | NASQRES | QQYHRLPLS | GP_Gibbs | 0.09 0.01 0.22 0.32 0.41 0.30 | 0.23 |
| TLGGVMDMTTKNVNSVA | DLTTRGN | QQYHRLPLS | En_HC | 0.27 0.40 0.31 0.29 0.28 0.31 | 0.31 |
| KSSMSYLYESRNKNSVA | EASTRES | QQYHRLPLM | GP_HC | 0.50 0.21 0.39 0.16 0.39 0.51 | 0.36 |
| TLTQSVGMESHNKDSVA | DLSTRGS | QQYHRLPLS | En_HC | 0.48 0.31 0.35 0.16 0.28 0.72 | 0.38 |
| KSSTSILYESVNKNSVA | HASTRES | QQYHRLPLS | GP_HC | 0.48 0.67 0.59 0.04 0.22 0.99 | 0.50 |
| KSEQLYYYGSRNKNSVA | QASTRES | QQYHRLPLS | GP_Gibbs | 0.64 0.38 0.58 0.51 0.51 0.51 | 0.52 |
| KSSQSLLYESNNKNSVA | WADTRES | QQYHRLPLS | Ctrl | 0.63 0.54 0.48 0.54 0.48 0.61 | 0.55 |
| KLTHLTFVLDRQKYSVA | DSERKAE | QQYNRLPLT | En_Gibbs | 0.54 0.33 0.56 0.59 0.59 0.91 | 0.59 |
| KSSQPMLYESRNKNSVA | GASTRES | QQYHRLPLS | Ctrl | 0.67 0.57 0.42 0.39 0.78 1.01 | 0.64 |
| VLSDTIENMASRADNIA | DTTETSY | QQYYRLPLS | En_Gibbs | 0.73 1.10 0.45 0.68 0.29 0.75 | 0.66 |
| KSSQSELYESRNKNSVA | DASQRES | QQYHRLPLS | GP_HC | 0.79 0.52 0.42 0.22 0.91 1.26 | 0.69 |
| GLTISGDETHEKAFSIA | NATNKAY | QQYARLPLT | En_Gibbs | 0.56 0.52 0.97 0.80 0.03 1.31 | 0.70 |
| KSSISHLYESRMKNSVA | EASTRES | QQYHRLPLS | GP_HC | 1.42 1.14 0.88 0.77 0.79 0.68 | 0.95 |
| MVTQMAMTGMKNKRSVA | NAEMREY | QQYNRLPLI | En_Gen | 1.51 0.75 1.52 0.92 0.84 1.04 | 1.10 |
| KLALVTGTEKVIGNNVA | EMETREK | QQYNRLPLA | En_Gen | 1.17 1.02 0.90 1.13 0.91 1.49 | 1.10 |
| MMSQVTGMGQRHRNNVA | QTSEREI | QQYDRLPLI | En_Gen | 1.48 1.38 0.61 1.01 0.89 1.61 | 1.16 |
| KSSQSVLYESRNKNSVA | EASTRES | SQYHRLPLS | Ctrl | 1.42 1.43 1.09 1.31 1.26 1.12 | 1.27 |
| TLGQVTMQLSRNKNSVA | DASTSED | QQYNRLPLS | En_HC | 1.42 1.01 1.34 1.60 0.97 1.33 | 1.28 |
| HITYGMMLYGRHSKSIA | QAEERAK | QQYDRLPLA | En_Gen | 1.58 1.20 1.25 0.96 2.05 0.90 | 1.32 |
| KSSQSVLYESRNKNSVA | SASTRES | QQHHRLPFS | Ctrl | 0.82 nd 1.56 2.29 1.39 0.89 | 1.39 |
| HITMGMYVHGRHHSSIA | QAETRMK | QQYDRLPLI | En_Gen | 1.57 1.76 1.27 1.55 1.40 1.70 | 1.54 |
| SLMHLSFVHPYEWNNVA | DASVKAS | QQYFRLPLV | En_Gibbs | nd 1.74 nd 1.60 1.41 1.79 | 1.64 |
| HVESAMVESNAKKKNVA | NGQGRVE | QQYGRLPLQ | En_Gibbs | 1.53 1.39 1.11 2.90 1.71 1.52 | 1.69 |
| KSSLSVLYESRNKNSVA | WASTRVS | QQYHRLPLS | Ctrl | 1.85 2.16 1.55 1.39 1.90 2.03 | 1.81 |
| KSSQSVLYESTSKNSVA | GASTRES | TQYHRLPIS | Ctrl | 2.21 1.96 1.28 1.57 1.49 2.56 | 1.85 |
| IISGSMLMESRKKNSVA | NAETREY | QHYDRLPLS | En_HC | 2.04 2.08 1.56 1.84 2.74 2.79 | 2.18 |
| KSSQSVLMESRNKNSVA | SASTRSS | QQYHRYPLS | Ctrl | 3.13 1.94 3.16 nd 2.60 nd | 2.71 |
| KSSQSVFYESRNKNSVA | WASTRES | QQYHRLPLF | Ctrl | nd nd 2.00 2.47 3.35 3.11 | 2.74 |
| KSSQSHLYESRNKNSVA | WASFRLS | QQYHRLPLS | Ctrl | nd nd nd nd nd nd | nd |
| KSSQSQLYESRNENHVA | WESTRES | QQYHRLPLS | Ctrl | nd nd nd nd nd nd | nd |
| RIWANCYDEEASNNSVA | NDRLAVQ | QQYDRLPLS | En_Gibbs | nd nd nd nd nd nd | nd |

The range of this assay differs from that of the first round, and the authors advise against merging the two.
Three control strains display no target. For all light chain designs, 4% of the pairings with them gave a signal, with a median of 2.64 and one signal in twenty below 1.59, so weak values seen in few replicates may be background.